In this assay the target is plectasin (Pseudoplectania nigrella, UniProt Q53I06). The assay is described as follows: intrinsic tryptophan (W8) fluorescence titration. Conditions: neutral DOPC LUVs, 2 mol% lipid II, no bivalent ions (100 uM EDTA), 50 mM HEPES, 150 mM NaCl, pH 7.2, 20 °C.

Chains of the proteins cited; added tags and fusions are not shown. Lines headed by an entry give the natural chain unless they say otherwise; changes in a name come on top.
UniProt Q53I06: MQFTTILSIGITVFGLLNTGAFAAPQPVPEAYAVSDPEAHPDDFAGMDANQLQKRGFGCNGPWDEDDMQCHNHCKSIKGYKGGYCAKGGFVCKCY

The substance lipid II returned a Kd of 155 nM.

The record behind these values is PMC11222147, “Host defence peptide plectasin targets bacterial cell wall precursor lipid II by a calcium-sensitive supramolecular mechanism” (Nature Microbiology, 2024).
